Three substances from US20130309753 can be followed below.

The target of one data set is protein C (UniProt P04070).
A further data set addresses fibrinogen (UniProt P02671).
The target of data set [1] is protease-activated receptor PAR1 (UniProt P25116).

wild type human thrombin: the kcat/Km for activation of protein C in the presence of 50 nM thrombomodulin and 5 mM CaCl2 with protein C turned out to be 220000 M⁻¹ s⁻¹. In addition, in the data set with fibrinogen, the kcat/Km for release of fibrinopeptide A (FpA) from fibrinogen was 1.7e+07 M⁻¹ s⁻¹. Further, the kcat/Km for cleavage of PAR1 in data set [1] is 2.7e+07 M⁻¹ s⁻¹.

With “thrombin mutant EDE (E14eA/D14lA/E18A), auto-activated”, in the data set with protein C, the kcat/Km for activation of protein C in the presence of 50 nM thrombomodulin and 5 mM CaCl2 is 110000 M⁻¹ s⁻¹. The kcat/Km for release of fibrinopeptide A (FpA) from fibrinogen with fibrinogen worked out at 7.2e+06 M⁻¹ s⁻¹. In data set [1], the kcat/Km for cleavage of PAR1 is 9.1e+06 M⁻¹ s⁻¹.

For “thrombin mutant EDEWE (E14eA/D14lA/E18A/W215A/E217A), auto-activated”, in the data set with protein C, the kcat/Km for activation of protein C in the presence of 50 nM thrombomodulin and 5 mM CaCl2 stood at 31000 M⁻¹ s⁻¹. Moreover, in the data set with fibrinogen, the kcat/Km for release of fibrinopeptide A (FpA) from fibrinogen was found to be 260 M⁻¹ s⁻¹. For the same substance, the kcat/Km for cleavage of PAR1 in data set [1] was 16000 M⁻¹ s⁻¹.
